scFv variants of Ab-14 (heavy chain) against a SARS-CoV-2 spike peptide

Antigen: PDVDLGDISGINAS, a 14-residue peptide of the SARS-CoV-2 spike HR2 region.

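The starting antibody came from a phage panning campaign against this peptide. Variants in AAYL49 differ from the parent at up to three CDR positions; double and triple changes were sampled at random. The assay is AlphaSeq: two haploid yeast populations carry antibody and antigen on their surface. Pairs that bind mate more often; barcode pairs of the diploids are counted by sequencing. Scores were corrected for input abundance and mapped to Kd with protein pairs of known affinity run in the same pool. Each pool was mated in three replicate cultures.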

Ab-14 is the parent antibody, in scFv form: VH, then three GGGGS repeats, then VL. The light chain is unchanged in all variants.
VH: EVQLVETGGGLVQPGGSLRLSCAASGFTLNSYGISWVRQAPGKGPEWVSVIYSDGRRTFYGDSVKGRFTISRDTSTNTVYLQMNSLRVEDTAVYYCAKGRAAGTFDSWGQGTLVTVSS
VL: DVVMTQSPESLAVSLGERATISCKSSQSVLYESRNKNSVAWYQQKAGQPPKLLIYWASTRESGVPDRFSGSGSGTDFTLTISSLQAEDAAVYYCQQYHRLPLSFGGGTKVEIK

Substitutions are numbered in sequence along the VH above, starting at 1 (not Kabat).
This list gathers variants with a substitution at V50 (VH, numbered from residue 1).
Numbers give log10(Kd / nM), so 0 is 1 nM and 3 is 1 µM. Smaller is tighter.
"n.d." means that the variant was in the library but no mating with the target was seen in that replicate; the authors take this as a sign of poor binding, and no number exists.
Three control strains display no target. For library AAYL49, 15% of the pairings with them gave a signal, with a median of 4.06 and one signal in twenty below 2.83, so weak values seen in few replicates may be background. Also given: how often the same scFv was detected with the empty control strains, with their mean in brackets.
For reference, the parent read 0.65 as the reference entry and 4.11 (one replicate of three) as a member of this library.

| changes | log10 Kd, replicates | control signals |
|---|---|---|
| V50G/A102L | n.d. n.d. 5.20 | 2/9 (4.85) |
| T28L/V50Q/G99W | 5.51 n.d. n.d. | 0/9 |
| S31T/V50W/G61P | n.d. n.d. n.d. | 0/9 |
| V50A/Y52P/G55Q | 3.64 n.d. n.d. | 2/9 (4.42) |
| V50R/I51W/G103L | n.d. n.d. n.d. | 0/9 |
| I34L/V50C/A101V | 5.02 n.d. 4.04 | 2/9 (3.97) |
| S35G/V50G/S63R | n.d. n.d. n.d. | 0/9 |
| V50G/G55T/K65T | 4.22 n.d. n.d. | 0/9 |
| V50A/R57H/D106F | n.d. n.d. 3.74 | 2/9 (3.50) |
| V50R/I51T/R57V | 3.72 n.d. n.d. | 0/9 |
| L29D/V50D/Y60P | n.d. n.d. n.d. | 3/9 (4.22) |
| Y32W/V50L/F105W | n.d. n.d. n.d. | 0/9 |
| V50N/Y52S/V64C | n.d. n.d. n.d. | 3/9 (4.30) |
| V50L/D62C/V64D | n.d. 4.16 3.67 | 0/9 |
| V50H/G99D/S107P | n.d. 3.60 n.d. | 4/9 (3.80) |
| V50Q/G99F/A101F | n.d. n.d. n.d. | 0/9 |
| G26K/V50G/A102H | 4.51 3.81 4.75 | 4/9 (3.60) |
| V50E/F59Q/D62I | n.d. n.d. n.d. | 0/9 |
| V50K/T58W/A102L | n.d. n.d. n.d. | 1/9 (3.36) |
| N30W/V50P/F105W | 4.40 n.d. n.d. | 3/9 (4.41) |
| L29G/V50Q/A102V | 4.57 4.77 n.d. | 3/9 (4.38) |
| G26I/V50H/K65Q | n.d. n.d. 5.92 | 1/9 (5.94) |
| V50H/S63H | n.d. n.d. n.d. | 1/9 (4.10) |
| Y32R/V50I/G103Q | n.d. n.d. n.d. | 1/9 (3.09) |
| V50W/G99E/F105S | n.d. n.d. 4.71 | 1/9 (4.72) |
| V50Y/T58M/G103P | n.d. n.d. n.d. | 0/9 |
| V50Y/V64A/A101I | n.d. n.d. n.d. | 1/9 (2.98) |
| S31L/S35Q/V50L | n.d. n.d. n.d. | 4/9 (4.59) |
| S31R/I34S/V50H | n.d. n.d. 3.31 | 1/9 (5.18) |
| I34W/V50Y/G99H | n.d. 3.25 n.d. | 1/9 (4.03) |
| L29Q/V50H/S53D | 5.54 n.d. n.d. | 2/9 (4.25) |

From the AlphaSeq antibody data of Engelhart et al. 2022 (doi:10.1038/s41597-022-01779-4), copy in the FLAb collection.